Biological target: human μ-opioid receptor (Homo sapiens, UniProt P35372)
Conditions: read-out: MU Ki nM; Table 2 (dual compounds); CHO-K1 membranes, 1 nM [3H]-DAMGO

Protein sequences, listed by entry. Tags and fused reporters are not part of them.
UniProt P35372, whole entry, looked up: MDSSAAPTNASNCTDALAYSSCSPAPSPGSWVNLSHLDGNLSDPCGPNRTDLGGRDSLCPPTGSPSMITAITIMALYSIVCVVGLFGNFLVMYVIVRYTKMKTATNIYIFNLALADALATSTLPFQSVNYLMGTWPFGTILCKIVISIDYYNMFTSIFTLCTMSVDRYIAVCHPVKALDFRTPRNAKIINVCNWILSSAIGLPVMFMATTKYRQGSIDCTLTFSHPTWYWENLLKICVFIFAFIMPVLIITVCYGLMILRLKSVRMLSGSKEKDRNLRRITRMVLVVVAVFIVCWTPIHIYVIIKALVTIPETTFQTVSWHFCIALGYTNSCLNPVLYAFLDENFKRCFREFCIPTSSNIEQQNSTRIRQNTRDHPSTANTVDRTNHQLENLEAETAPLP

Row | SMILES | Ki
1 | CNCCC(Oc1cccc(CN2CCC(c3ccccc3)(N(C)C)CC2)c1)c1cccs1 (centres unmarked) [Example 2, N,N-dimethyl-1-(3-(3-(methylamino)-1-(thiophen-2-yl)propoxy)benzyl)-4-phenylpiperidin-4-amine] | < 100 nM
2 | CNCCC(Oc1cccc(CN2CCC(c3cccc(O)c3)CC2)c1)c1cccs1 (centres unmarked) [Example 3, 3-(1-(3-(3-(Methylamino)-1-(thiophen-2-yl)propoxy)benzyl)piperidin-4-yl)phenol] | 100 to 500 nM
3 | CNCCC(Oc1cccc(CN2CCC(c3cccc(O)c3)(N(C)C)CC2)c1)c1cccs1 (centres unmarked) [Example 5, 3-(4-(Dimethylamino)-1-(3-(3-(methylamino)-1-(thiophen-2-yl)propoxy)benzyl)piperidin-4-yl)phenol] | < 100 nM
4 | CNCCC(Oc1cccc(C(=O)N2CCC(c3ccccc3)(N(C)C)CC2)c1)c1cccs1 (centres unmarked) [Example 7, (4-(Dimethylamino)-4-phenylpiperidin-1-yl)(3-(3-(methylamino)-1-(thiophen-2-yl)propoxy)phenyl)methanone] | 500 to 1000 nM
5 | CNCC[C@H](Oc1cccc(CN2CCC(c3cccc(O)c3)(N(C)C)CC2)c1)c1cccs1 [Example 14, (S)-3-(4-(dimethylamino)-1-(3-(3-(methylamino)-1-(thiophen-2-yl)propoxy)benzyl)piperidin-4-yl)phenol] | < 100 nM
6 | CNCC[C@H](Oc1cccc(CN2CCC(c3ccccc3)(N(C)C)CC2)c1)c1cccs1 [Example 15, (S)-N,N-dimethyl-1-(3-(3-(methylamino)-1-(thiophen-2-yl)propoxy)benzyl)-4-phenylpiperidin-4-amine] | < 100 nM
7 | CNCC[C@@H](Oc1cccc(CN2CCC(c3ccccc3)(N(C)C)CC2)c1)c1cccs1 [Example 16, (R)-N,N-dimethyl-1-(3-(3-(methylamino)-1-(thiophen-2-yl)propoxy)benzyl)-4-phenylpiperidin-4-amine] | 100 to 500 nM
8 | CNCC[C@@H](Oc1cccc(CN2CCC(c3cccc(O)c3)(N(C)C)CC2)c1)c1cccs1 [Example 17, (R)-3-(4-(dimethylamino)-1-(3-(3-(methylamino)-1-(thiophen-2-yl)propoxy)benzyl)piperidin-4-yl)phenol] | < 100 nM
9 | CNCCC(OCc1cccc(CN2CCC(c3ccccc3)(N(C)C)CC2)c1)c1cccs1 (centres unmarked) [Example 20, N,N-dimethyl-1-(3-((3-(methylamino)-1-(thiophen-2-yl)propoxy)methyl)benzyl)-4-phenylpiperidin-4-amine] | 100 to 500 nM
10 | CNCC[C@H](OCc1cccc(CN2CCC(c3ccccc3)(N(C)C)CC2)c1)c1cccs1 [Example 21, (S)-N,N-dimethyl-1-(3-((3-(methylamino)-1-(thiophen-2-yl)propoxy)methyl)benzyl)-4-phenylpiperidin-4-amine] | 100 to 500 nM
11 | CNCC[C@@H](OCc1cccc(CN2CCC(c3ccccc3)(N(C)C)CC2)c1)c1cccs1 [Example 22, (R)-N,N-dimethyl-1-(3-((3-(methylamino)-1-(thiophen-2-yl)propoxy)methyl)benzyl)-4-phenylpiperidin-4-amine] | 100 to 500 nM
12 | CNCC[C@H](OCc1cccc(CN2CCC(c3cccc(O)c3)(N(C)C)CC2)c1)c1cccs1 [Example 23, (S)-3-(4-(dimethylamino)-1-(3-((3-(methylamino)-1-(thiophen-2-yl)propoxy)methyl)benzyl)piperidin-4-yl)phenol] | < 100 nM
13 | CNCC[C@@H](OCc1cccc(CN2CCC(c3cccc(O)c3)(N(C)C)CC2)c1)c1cccs1 [Example 24, (R)-3-(4-(dimethylamino)-1-(3-((3-(methylamino)-1-(thiophen-2-yl)propoxy)methyl)benzyl)piperidin-4-yl)phenol] | < 100 nM
14 | CNCCC(Oc1cccc(N2CCC(c3ccccc3)(N(C)C)CC2)c1)c1cccs1 (centres unmarked) [Example 43, N,N-dimethyl-1-(3-(3-(methylamino)-1-(thiophen-2-yl)propoxy)phenyl)-4-phenylpiperidin-4-amine] | 500 to 1000 nM
15 | CNCCC(Oc1ccc(CN2CCC(c3ccccc3)(N(C)C)CC2)cc1)c1cccs1 (centres unmarked) [Example 51, N,N-dimethyl-1-(4-(3-(methylamino)-1-(thiophen-2-yl)propoxy)benzyl)-4-phenylpiperidin-4-amine] | 100 to 500 nM
16 | CNCCC(Oc1ccc(CN2CCCc3ccccc32)c(F)c1)c1cccs1 (centres unmarked) [Example 54, 3-(4-((3,4-Dihydroquinolin-1(2H)-yl)methyl)-3-fluorophenoxy)-N-methyl-3-(thiphen-2-yl)propan-1-amine] | < 100 nM
17 | CNCCC(Oc1ccc(CN2CCc3ccccc3C2)c(F)c1)c1cccs1 (centres unmarked) [Example 55, 3-(4-((3,4-Dihydroisoquinolin-2(1H)-yl)methyl)-3-fluorophenoxy)-N-methyl-3-(thiophen-2-yl)propan-1-amine] | < 100 nM

Source: patent publication US20200270237A1 (priority 2017, published 2020)
